Earlier results, collected in patent US20090069334A1, “Pyridazine based alpha-helix mimetics” (The Scripps Research Institute, priority 2007, published 2009).

Chains of the proteins cited; added tags and fusions are not shown.
UniProt Q07817, whole entry, species assumed: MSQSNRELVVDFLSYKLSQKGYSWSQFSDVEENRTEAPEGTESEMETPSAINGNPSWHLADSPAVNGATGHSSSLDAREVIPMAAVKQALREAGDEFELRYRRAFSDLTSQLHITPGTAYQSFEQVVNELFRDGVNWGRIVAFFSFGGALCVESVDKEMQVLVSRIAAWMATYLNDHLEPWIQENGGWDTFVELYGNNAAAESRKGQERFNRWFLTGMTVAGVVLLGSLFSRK

Target: Bcl-xL (Homo sapiens, UniProt Q07817)
Conditions: 16 residue BH3 domain peptide from Bak (aa 72 to 87) bound to Bcl-xL

**Q.** For “16 residue BH3 domain peptide from Bak: 16 residue BH3 domain peptide from Bak (aa 72 to 87) that binds in helical conformation to Bcl-xL”, which Kd is on record?
**A.** Its Kd is ~300 nM.
